Values of other authors as cited in patent publication US4874795A, “Composition for delivery of orally administered drugs and other substances” (priority 1986, dated 1989).

Conditions: in vivo; cited from earlier work

Substance: phosphatidyl choline
- effect of excess on lipid absorption: reduce lipid absorption
